Consider 7 substances from patent publication US7179818B2, “Substituted aminoquinuclidine compounds” (Ortho-McNeil Pharmaceutical, Inc., priority 2002, dated 2007).

Sequences of proteins named here, by UniProt entry; tags and fusion partners are left off. A change or cut given only in a name is not applied to a line headed by its entry.
UniProt P33533, whole entry: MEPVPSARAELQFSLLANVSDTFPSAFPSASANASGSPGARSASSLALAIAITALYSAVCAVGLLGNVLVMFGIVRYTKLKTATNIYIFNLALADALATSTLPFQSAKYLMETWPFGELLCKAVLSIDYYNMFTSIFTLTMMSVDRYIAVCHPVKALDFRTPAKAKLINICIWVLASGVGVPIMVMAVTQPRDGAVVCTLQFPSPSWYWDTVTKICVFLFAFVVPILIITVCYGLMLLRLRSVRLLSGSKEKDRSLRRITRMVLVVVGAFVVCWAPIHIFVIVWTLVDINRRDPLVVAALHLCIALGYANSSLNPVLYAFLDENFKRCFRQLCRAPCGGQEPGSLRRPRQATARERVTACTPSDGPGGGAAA
UniProt P33535, whole entry: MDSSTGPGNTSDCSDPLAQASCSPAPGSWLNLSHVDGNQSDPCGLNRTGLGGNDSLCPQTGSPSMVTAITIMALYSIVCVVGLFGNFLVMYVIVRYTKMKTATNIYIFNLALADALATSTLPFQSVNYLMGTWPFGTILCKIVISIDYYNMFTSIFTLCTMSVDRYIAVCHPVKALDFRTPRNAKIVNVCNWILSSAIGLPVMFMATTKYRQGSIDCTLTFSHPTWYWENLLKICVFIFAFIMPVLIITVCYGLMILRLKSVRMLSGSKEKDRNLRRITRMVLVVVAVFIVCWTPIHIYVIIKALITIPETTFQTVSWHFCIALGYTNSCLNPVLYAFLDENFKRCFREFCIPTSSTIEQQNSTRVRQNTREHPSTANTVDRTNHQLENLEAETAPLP

Test [1] has as its target T1, δ-opioid receptor (Rattus norvegicus, UniProt P33533).
T1 construct: from tissue; host or cells: rat (Wistar) forebrain homogenate, particulate preparation
The test is described as follows: Rat brain δ-opioid receptor binding assay ([3H]DPDPE). The following applies: rat forebrain membranes, 25° C. On the procedure:
(§1) Male, Wistar rats (150–250 g, VAF, Charles River, Kingston, N.Y.) are killed by cervical dislocation, and their brains removed and placed immediately in ice cold Tris HCl buffer (50 mM, pH 7.4). The forebrains are separated from the remainder of the brain by a coronal transection, beginning dorsally at the colliculi and passing ventrally through the midbrain-pontine junction. After dissection, the forebrains are homogenized in Tris buffer in a Teflon®-glass homogenizer. The homogenate is diluted to a concentration of 1 g of forebrain tissue per 100 mL Tris buffer and centrifuged at 39,000×G for 10 min. The pellet is resuspended in the same volume of Tris buffer with several brief pulses from a Polytron homogenizer. This particulate preparation is used for the δ-opioid binding assays. Following incubation with the δ-selective peptide ligand [^3H]DPDPE at 25° C., the tube contents are filtered through Whatman GF/B filter sheets on a Brandel cell harvester. The tubes and filters are rinsed three times with 4 mL of 10 mM HEPES (pH 7.4), and the radioactivity associated with the filter circles determined using Formula 989 scintillation fluid (New England Nuclear, Boston, Mass.) in a scintillation counter.
The data are used to calculate either the % inhibition compared to control binding (when only a single concentration of test compound is evaluated) or a Ki value (when a range of concentrations are tested).
% Inhibition was calculated as: […]
(§2) Ki value is calculated using the LIGAND (Munson, P. J. and Rodbard, D., Anal. Biochem. 107: 220–239, 1980) data analysis program.

For test [2], the target named is T2, μ-opioid receptor (Rattus norvegicus, UniProt P33535).
T2 construct: from tissue; host or cells: rat (Wistar) forebrain homogenate, particulate preparation
Put plainly: Rat brain μ-opioid receptor binding assay ([3H]DAMGO). Conditions: rat forebrain membranes, 25° C. On the procedure: as §1, with “Chades” for “Charles”, “dislocation” for “dislocation,”, “μ-opioid” for “δ-opioid”, “Following incubation with the δ-selective peptide ligand [^3H]DPDPE at 25° C., the tube contents are filtered through Whatman GF/B filter sheets on a Brandel cell harvester.” left out, “7.4)” for “7.4),”
The data are used to calculate either the % inhibition compared to control binding (when only a single concentration of test compound is evaluated) or a Ki value (when a range of concentrations is tested).
% Inhibition is calculated as: […]
as §2

The Ki is a measure of affinity in units of concentration, obtained from inhibition or displacement. High values mean a looser hold on the target, low ones a stronger hold on the target. On to “N,N-Diethyl-4-[phenyl-(1-azabicyclo[2.2.2]octan-3-amino)]benzamide Fumarate [Compound 1, N,N-Diethyl-4-[phenyl-(1-azabicyclo[2.2.2]octan-3-amino)]benzamide Fumarate [1:1]]”, for which the Ki in test [1] stood at 98 nM; in test [2] it was 10000 nM.

As to “N,N-Diethyl-4-[(3-methoxyphenyl)-(1-azabicyclo[2.2.2]octan-3-amino)]benzamide Fumarate Hydrate[1:1:0.5] [Compound 2]”, in test [1], the inhibition constant (Ki) came out at 115 nM.

As for “N,N-Diethyl-4-[(3-hydoxyphenyl)-(1-azabicyclo[2.2.2]octan-3-amino)]benzamide Fumarate Hydrate[1:1:0.5] [Compound 3]”, the Ki was 3 nM in test [1] and 160 nM in test [2].

“N,N-Diethyl-4-[(3-chlorophenyl)-(1-azabicyclo[2.2.2]octan-3-amino)]benzamide Hydrochloride [Compound 6, N,N-Diethyl-4-[(3-chlorophenyl)-(1-azabicyclo[2.2.2]octan-3-amino)]benzamide Hydrochloride [1:1]]”: in test [1], the Ki is 171 nM.

As for “N,N-Diethyl-4-[(3-thiomethylphenyl)-(trans-2-methyl-1-azabicyclo[2.2.2]octan-3-amino)]benzamide Fumarate [Compound 10, N,N-Diethyl-4-[(3-thiomethylphenyl)-(trans-2-methyl-1-azabicyclo[2.2.2]octan-3-amino)]benzamide Fumarate [1:1.5]]”, the Ki in test [1] came out at 12 nM; in test [2], 2770 nM.

In the case of “N,N-Diethyl-4-[(2-methoxyphenyl)-(1-azabicyclo[2.2.2]octan-3-amino)]benzamide Hydrochloride [Compound 5, N,N-Diethyl-4-[(2-methoxyphenyl)-(1-azabicyclo[2.2.2]octan-3-amino)]benzamide Hydrochloride [1:1]]”, the Ki in test [1] amounted to 290 nM.

For the substance “N,N-Diethyl-4-[phenyl-(cis-2-methyl-1-azabicyclo[2.2.2]octan-3-amino)]benzamide [Compound 9]”, the Ki in test [1] worked out at 19 nM; in test [2] it was 3040 nM.
